# Reference: PubChem BioAssay AID743126 (The Scripps Research Institute Molecular Screening Center, 2013)
# Sequences of proteins named here, by UniProt entry; tags and fusion partners are left off.
# UniProt Q9NZ20, whole entry: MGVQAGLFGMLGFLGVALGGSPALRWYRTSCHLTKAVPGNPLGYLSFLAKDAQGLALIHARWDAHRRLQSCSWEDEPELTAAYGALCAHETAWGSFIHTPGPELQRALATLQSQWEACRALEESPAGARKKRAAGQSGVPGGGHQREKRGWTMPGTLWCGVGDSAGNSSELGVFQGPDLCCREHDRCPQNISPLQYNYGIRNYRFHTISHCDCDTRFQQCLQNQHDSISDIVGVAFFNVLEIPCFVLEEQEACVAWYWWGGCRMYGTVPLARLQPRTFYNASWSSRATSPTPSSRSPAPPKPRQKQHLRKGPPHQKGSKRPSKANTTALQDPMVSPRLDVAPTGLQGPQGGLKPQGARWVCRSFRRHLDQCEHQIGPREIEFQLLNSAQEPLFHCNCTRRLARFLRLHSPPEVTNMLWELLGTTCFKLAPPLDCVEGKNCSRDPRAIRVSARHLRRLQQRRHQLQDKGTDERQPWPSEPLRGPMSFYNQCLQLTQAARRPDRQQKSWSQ
# The list shows a part of the results, in another mix than the full data. Active and inactive are the calls of the source.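 How the source made its calls: active means inhibition above mean plus 3 SD of compounds lying within the high and low control bounds (cut at about 19% in these data); inactive means the rest.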
# Molecular target: Group 3 secretory phospholipase A2 (Homo sapiens) (UniProt Q9NZ20)
# Experiment: human group III sPLA2 inhibitors, primary screen, biochemical, QFRET, BODIPY PC-A2 liposome substrate (AID 743126);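 further: 0% = median of test compound wells and 100% = no enzyme DMSO wells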
# Details: QFRET BODIPY PC-A2 liposome hydrolysis, fluorescence; at 12.2 µM; stronger effect = higher value
row,Compound,inhibition
1,CCC(=O)N(c1ccccc1)C1(COC)CCN(CCc2cccs2)CC1,inactive: -5.64%
2,CCC(=O)N(c1ccccc1)C1(COC)CCN(CCn2nnn(CC)c2=O)CC1,inactive: 10.2%
